Assay results: publication PMC3145970, “Specific CLK Inhibitors from a Novel Chemotype for Regulation of Alternative Splicing” (Chemistry & Biology, 2011)

By UniProt entry, the sequences of proteins in these tests, tags left out. Residues count along the entry.
UniProt P49761, 127-484 limits assumed: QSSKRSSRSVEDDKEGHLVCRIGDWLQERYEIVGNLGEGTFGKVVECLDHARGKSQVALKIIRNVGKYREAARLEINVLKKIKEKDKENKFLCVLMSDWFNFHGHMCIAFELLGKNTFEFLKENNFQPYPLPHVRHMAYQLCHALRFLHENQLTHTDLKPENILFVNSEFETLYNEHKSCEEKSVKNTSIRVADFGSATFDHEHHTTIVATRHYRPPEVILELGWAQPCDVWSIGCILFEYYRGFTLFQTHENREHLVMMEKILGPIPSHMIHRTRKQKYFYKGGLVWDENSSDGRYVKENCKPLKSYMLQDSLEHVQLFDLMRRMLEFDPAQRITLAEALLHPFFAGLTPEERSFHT

Key:
CLK3 = CLK3 (Homo sapiens, UniProt P49761); assay: Coupled-enzyme (PK/LDH) kinase inhibition assay; assay type: biochemical; design: CLK3 (residues 275–632) were subcloned by ligation independent cloning; hexahistidine tag (TEV-cleavable) (cleaved yes); made in house; host or cells: E. coli BL21(DE3)
DYRK1A = DYRK1A (Homo sapiens, UniProt Q13627); assay: Coupled-enzyme (PK/LDH) kinase inhibition assay; assay type: biochemical; settings: 0.1 mM ATP, 25°C; average from three independent experiments

SMILES	IC50 (CLK3; 0.1 mM ATP, 25°C, average from three independent experiments, read-out: IC50 CLK3) [µM]	IC50 (DYRK1A) [µM]	IC50 (CLK3) [µM]
CCN1/C(=C/C(C)=O)Sc2ccc(OC)cc21 [TG003]	> 4	0.156 ± 0.023	–
CCOC(=O)c1c(C(C#N)=CN)c2ccc(Cl)c(Cl)c2n1C (mixture of isomers) [KH-CB20, (E/Z)-Ethyl 3-(2-Amino-1-Cyanovinyl)-6,7-Dichloro-1-Methyl-1H-Indole-2-Carboxylate]	–	–	0.488 ± 0.12
CCOC(=O)c1c(/C(C#N)=C\N)c2ccc(Cl)c(Cl)c2n1C [KH-CB19, (E)-Ethyl 3-(2-Amino-1-Cyanovinyl)-6,7-Dichloro-1-Methyl-1H-Indole-2-Carboxylate]	–	–	0.53 ± 0.14

Like-named read-outs stand apart in the source and are kept apart here.
